Assays:
[1] = molecular target: T1, AChE (isolated from electric eels) (Electrophorus electricus, UniProt O42275); type: biochemical; details: mean ± standard error
T1 construct: AChE (isolated from electric eels) (type VI-S lyophilized powder); purchased Sigma-Aldrich type VI-S lyophilized powder; host or cells: isolated from electric eels

Chains of the proteins cited; added tags and fusions are not shown. Lines headed by an entry give the natural chain unless they say otherwise; changes in a name come on top. Residues count along the entry.
UniProt O42275, 24-633: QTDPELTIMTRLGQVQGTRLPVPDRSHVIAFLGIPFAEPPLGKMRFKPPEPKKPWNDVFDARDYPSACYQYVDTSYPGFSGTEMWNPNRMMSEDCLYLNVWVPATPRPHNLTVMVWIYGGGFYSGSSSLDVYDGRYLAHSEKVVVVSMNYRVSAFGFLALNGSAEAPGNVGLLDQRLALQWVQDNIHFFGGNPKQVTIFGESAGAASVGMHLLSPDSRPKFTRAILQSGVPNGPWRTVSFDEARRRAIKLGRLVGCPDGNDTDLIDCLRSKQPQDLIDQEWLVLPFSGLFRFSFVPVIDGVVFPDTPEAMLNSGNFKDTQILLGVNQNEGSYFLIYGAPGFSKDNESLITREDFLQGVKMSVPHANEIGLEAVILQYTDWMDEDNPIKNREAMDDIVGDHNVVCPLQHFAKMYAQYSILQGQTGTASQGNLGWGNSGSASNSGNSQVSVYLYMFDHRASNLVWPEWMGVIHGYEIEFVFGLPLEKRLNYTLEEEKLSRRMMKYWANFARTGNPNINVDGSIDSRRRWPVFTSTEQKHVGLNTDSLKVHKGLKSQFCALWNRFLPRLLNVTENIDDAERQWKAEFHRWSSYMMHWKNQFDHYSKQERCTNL
UniProt P53341: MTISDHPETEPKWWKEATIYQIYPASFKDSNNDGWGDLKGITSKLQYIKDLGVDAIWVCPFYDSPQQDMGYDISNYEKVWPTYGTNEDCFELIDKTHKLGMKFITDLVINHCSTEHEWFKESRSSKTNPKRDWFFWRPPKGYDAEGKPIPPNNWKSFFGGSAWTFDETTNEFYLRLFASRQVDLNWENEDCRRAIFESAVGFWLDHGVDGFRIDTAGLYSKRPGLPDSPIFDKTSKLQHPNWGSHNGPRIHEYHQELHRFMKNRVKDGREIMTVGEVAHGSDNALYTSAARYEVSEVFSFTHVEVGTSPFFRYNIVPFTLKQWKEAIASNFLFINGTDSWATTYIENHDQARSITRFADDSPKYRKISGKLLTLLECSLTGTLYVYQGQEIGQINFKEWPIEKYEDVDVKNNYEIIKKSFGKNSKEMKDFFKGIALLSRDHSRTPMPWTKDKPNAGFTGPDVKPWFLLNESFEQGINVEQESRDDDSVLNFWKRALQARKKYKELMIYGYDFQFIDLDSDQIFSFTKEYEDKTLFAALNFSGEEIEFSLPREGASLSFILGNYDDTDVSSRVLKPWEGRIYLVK

yeast α-glucosidase = molecular target: T2, yeast α-glucosidase (Saccharomyces cerevisiae, UniProt P53341); experiment: α-Glucosidase inhibitory activity; type: biochemical, Saccharomyces cervisiae; details: mean ± standard error
T2 construct: purchased Sigma-Aldrich

## Quercetin-3-O-rhamnoside [Quercetin-3-O-rhamnoside (2)]
[1]
  AChE inhibitory activity IC50: 60.7 ± 7.9 µg·days/mL
Yeast α-glucosidase
  α-Glucosidase inhibitory activity IC50: 122.7 ± 1.6 a,b µg/mL
